The assay concerns the target T1, human GlyT1c transporter (Homo sapiens, UniProt P48067).
T1 construct: expressed in transfected cells; host or cells: CHO cells (recombinant; line hGlyT1c_5_CHO is named for the uptake assay)
T1 sequence (P48067 1-706): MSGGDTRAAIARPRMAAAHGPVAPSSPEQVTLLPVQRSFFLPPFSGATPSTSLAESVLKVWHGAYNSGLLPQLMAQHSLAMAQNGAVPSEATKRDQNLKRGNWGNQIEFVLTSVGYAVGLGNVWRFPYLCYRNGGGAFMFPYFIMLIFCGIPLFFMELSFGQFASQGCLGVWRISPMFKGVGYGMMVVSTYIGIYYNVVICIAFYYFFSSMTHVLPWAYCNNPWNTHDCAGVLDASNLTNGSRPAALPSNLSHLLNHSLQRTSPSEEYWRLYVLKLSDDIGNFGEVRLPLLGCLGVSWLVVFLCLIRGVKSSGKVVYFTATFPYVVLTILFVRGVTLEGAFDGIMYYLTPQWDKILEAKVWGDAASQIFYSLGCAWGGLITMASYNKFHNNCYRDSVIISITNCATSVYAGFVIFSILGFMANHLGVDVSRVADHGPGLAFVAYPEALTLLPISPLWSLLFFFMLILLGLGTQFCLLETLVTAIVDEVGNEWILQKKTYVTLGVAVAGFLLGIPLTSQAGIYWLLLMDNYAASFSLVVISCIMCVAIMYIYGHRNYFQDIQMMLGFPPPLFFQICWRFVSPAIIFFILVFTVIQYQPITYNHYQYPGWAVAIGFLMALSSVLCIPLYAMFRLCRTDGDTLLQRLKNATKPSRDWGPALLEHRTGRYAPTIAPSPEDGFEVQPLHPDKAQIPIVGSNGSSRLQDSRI
Briefly: Radioligand binding assay using recombinant CHO cell membranes expressing human GlyT1. To be noted: radioligand binding to human GlyT1c transporter-expressing membranes.

Where only a bound is given, the exact number is not on record here.

Regarding “N-[trans-1-(ethylsulfonyl)-4-phenylpyrrolidin-3-y]-4-(trifluoromethyl)benzamide [Example 122]”, the Ki was no more than 10 µM.

What is called Ki is a dissociation constant, usually derived from enzyme kinetics or from competition with a known ligand.

(Values after patent publication EP2970215B1, “PYRROLIDINE DERIVATIVES, PHARMACEUTICAL COMPOSITIONS CONTAINING THEM, AND THEIR USE IN THERAPY” (AbbVie Deutschland GmbH & Co. KG, priority 2013, dated 2014).)
